Assays:
[1] = biological target: PPARγ (Homo sapiens, UniProt P37231); experiment: GeneBLAzer NR-UAS-bla HEK 293 T assay; format: cell-based; conditions: antagonistic mode and basal activity
[2] = biological target: T1, hPXR (Homo sapiens, UniProt O75469); experiment: hPXR transactivation assay, HepG2 stable cell line, antagonistic mode
[3] = biological target: T1, hPXR; experiment: hPXR TR-FRET-binding assay; conditions: read-out: IC50 (Binding)

Protein sequences, listed by entry. Tags and fused reporters are not part of them. Residues count along the entry.
UniProt P37231, 238-505 limits assumed: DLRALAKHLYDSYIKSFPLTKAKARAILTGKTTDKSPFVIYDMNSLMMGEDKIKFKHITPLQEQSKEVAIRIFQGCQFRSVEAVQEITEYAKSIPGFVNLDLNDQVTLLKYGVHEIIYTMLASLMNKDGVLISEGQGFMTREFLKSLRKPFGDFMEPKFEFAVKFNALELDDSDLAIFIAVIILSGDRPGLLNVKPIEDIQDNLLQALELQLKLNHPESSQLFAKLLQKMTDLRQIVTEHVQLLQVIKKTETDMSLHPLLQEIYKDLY
UniProt O75469, 146-433 limits assumed: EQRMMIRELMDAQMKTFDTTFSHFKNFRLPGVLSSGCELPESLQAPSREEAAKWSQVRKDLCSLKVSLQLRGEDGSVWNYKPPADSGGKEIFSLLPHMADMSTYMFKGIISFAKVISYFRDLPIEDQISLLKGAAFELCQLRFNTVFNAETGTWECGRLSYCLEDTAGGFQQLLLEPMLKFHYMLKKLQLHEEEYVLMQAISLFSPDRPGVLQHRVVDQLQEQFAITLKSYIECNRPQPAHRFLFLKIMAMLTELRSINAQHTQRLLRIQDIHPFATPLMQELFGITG
UniProt O75469, whole entry: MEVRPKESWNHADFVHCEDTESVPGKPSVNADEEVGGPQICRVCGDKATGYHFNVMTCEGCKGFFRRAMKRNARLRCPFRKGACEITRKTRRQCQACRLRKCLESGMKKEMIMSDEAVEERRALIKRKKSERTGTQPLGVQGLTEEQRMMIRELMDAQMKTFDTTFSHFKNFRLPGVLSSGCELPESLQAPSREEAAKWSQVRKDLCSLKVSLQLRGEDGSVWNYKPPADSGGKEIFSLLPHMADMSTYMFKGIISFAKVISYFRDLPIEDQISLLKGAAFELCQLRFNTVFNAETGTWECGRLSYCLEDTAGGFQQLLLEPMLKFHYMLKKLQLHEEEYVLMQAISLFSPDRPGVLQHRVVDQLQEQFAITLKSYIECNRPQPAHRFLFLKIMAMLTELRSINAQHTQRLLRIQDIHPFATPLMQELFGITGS

| SMILES | Effect on PPARγ [1] | hPXR antagonistic activity (in words) [2] | IC50 [3] |
| --- | --- | --- | --- |
| COc1cc(Cl)c(Cl)cc1-n1nnc(S(=O)(=O)c2ccc(C(C)(C)C)cc2)c1C | moderately antagonized PPARγ and reduced its basal activity |  |  |
| COc1cc(-n2nnc(S(=O)(=O)c3ccc(C(C)(C)C)cc3)c2C)c(OC)cc1F |  | decreased hPXR antagonistic activity | 1.34 µM |
| COc1cc(-n2nnc(S(=O)(=O)c3ccc(C(C)(C)C)cc3)c2C)c(OC)cc1C(C)C |  |  | 0.31 µM |
| CCc1cc(OC)c(-n2nnc(S(=O)(=O)c3ccc(C(C)(C)C)cc3)c2C)cc1OC |  |  | 0.53 µM |
| COc1cc(-n2nnc(S(=O)(=O)c3ccc(C(C)(C)C)cc3)c2C)c(OC)cc1C(C)=O |  |  | 2.33 µM |
| COc1cc(-n2nnc(S(=O)(=O)c3ccc(C(C)(C)C)cc3)c2C)c(OC)cc1C#N |  |  | 2.2 µM |
| COc1cc(-n2nnc(S(=O)(=O)c3ccc(C(C)(C)C)cc3)c2C)c(OC)cc1Br |  |  | 1.53 µM |

Reference: article PMC5622171 (Nature Communications, 2017)
